Data published in patent EP2423217A1, “Peptide and protein affinity tag from mistic protein” (Forschungsverbund Berlin E.V., priority 2010, dated 2012).

Test system: MB peptide
Format: physicochemical

pH switch value: maintains a similar pH switch value
switch properties (monomer below the switching pH value when reversed): reverses the switch properties
Substance: MKVTSHHKEQLSTAIDRMNEGLHAFlQLYNHS [SEQ ID NO: 6]
